Measurements: ChEMBL document CHEMBL2321777, “Selective mGAT2 (BGT-1) GABA uptake inhibitors: design, synthesis, and pharmacological characterization” (J Med Chem, 2013)

Molecular target: Sodium- and chloride-dependent GABA transporter 1 (Mus musculus, UniProt P31648)
Experiment: Inhibition of [3H]GABA uptake at mouse GAT1 expressed in HEK293 cells after 3 mins by scintillation counting analysis
Type: cell-based
In short: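 Uptake measured in primary mouse cortical astrocyte or neuron cultures, or in cells stably overexpressing the respective recombinant mGAT. Cells were incubated at 37 °C in phosphate-buffered saline with [3H]GABA (1 μCi/mL), 1 μM GABA and increasing inhibitor concentrations. After 3 min, uptake was stopped by automated washing. Cells were solubilized in scintillant, radioactivity was counted, and inhibition curves were analyzed.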

SMILES: O=C(O)[C@@H]1CCCNC1 [(R)-NIPECOTIC ACID]
- IC50: 25 µM
